{"source": "patent US20160120858A1", "about": "“PHARMACEUTICAL COMPOSITION CONTAINING CLIOQUINOL FOR TREATING AUTISM SPECTRUM DISORDERS” (ACADEMIA SINICA, priority 2014, published 2016)", "key": {"[1]": {"test_system": "Shank2^−/− mice", "experiment": "Three-chamber social interaction assay, Shank2 mice", "format": "in vivo, mouse", "conditions": "30 mg/kg i.p., 2 hours prior to test", "excerpt": "(§1) All mice were backcrossed into a C57BL/6 background, and housed and bred in a mouse vivarium at the Korea Advanced Institute of Science and Technology (KAIST, Shank2^−/−mice) and at Academia Sinica (Tbr1^+/− mice). Pups were kept with the dam until weaning at postnatal day 21. After weaning, animals were group housed in mixed-genotype groups of 3 to 5 mice per cages, and randomly subjected to electrophysiological and behavioral experiments. Animals at 3 to 5 weeks of age were used for electrophysiological experiments; male animals at 2 to 4 months of age were used for behavioral assays. For TFL-Zn staining, male animals at 8 weeks (for Shank2^−/−mice) were used. Wild-type littermates were used as controls.\n(§2) The injection was performed 2 hours before (Shank2^−/− mice and wild-type littermates), or 3 hours before (Tbr1^+/− mice and wild-type littermates) behavioral assays at the discretion of the facility.\n(§3) Testing was conducted in dedicated behavioral test rooms during the light phase (three-chamber test) and the dark phase (repetitive behaviors and open field test).\n(§4) In short, the assay consisted of three phases of 10 minutes duration: habituation, social interaction (Stranger1 vs. Object), and social novelty recognition (Stranger 1 vs. Stranger 2). Exploration was defined as each instance in which wild-type or mutant mouse tries to sniff Object/Stranger, or orients its nose towards and come close to object/stranger. Individual movement tracks were analyzed by Ethovision 10.0 (Noldus) and modified by custom-designed software MatLab (Mathworks) to generate heat maps. Time spent in exploration was analyzed by the researcher who was blinded to the subject genotype (in Shank2 mice), or by using the Smart Video Tracking System (Panlab, in Tbr1 mice). In addition to exploration time, the preference index, which represents a numerical difference between time spent exploring the targets (Stranger1 vs. Object, or Stranger 2 vs. Stranger 1) divided by total time spent exploring both targets, as described previously.\nTwo hours after CQ treatment, the mice were subjected to a three-chamber social interaction test, which compares the preference of a mouse for a stranger mouse versus a novel inanimate object."}, "[2]": {"test_system": "Tbr1^+/− mice", "experiment": "Three-chamber social interaction assay, Tbr1 mice", "format": "in vivo, mouse", "conditions": "30 mg/kg, 3 hours before test", "excerpt": "as §1, §2, §3, §4"}, "[3]": {"test_system": "ZnT3 protein", "experiment": "ZnT3 protein level in whole brain crude synaptosomes (immunoblot)", "format": "in vivo, mouse", "conditions": "WT and Shank2^−/− mice (8 weeks); 30 mg/kg i.p. 2 hours before sample preparation", "method": "Mice were acutely injected with CQ (30 mg/kg; i.p.) 2 hours before sample preparation and immunoblot analysis. (n=4 for each group, NS indicates “not significant”, one-way ANOVA).\nCrude synaptosomes were prepared from Shank2^−/−mice (Won H, et al. Autistic-like social behavior in Shank2-mutant mice improved by restoring NMDA receptor function. Nature 486, 261-265 (2012)). In other words, mouse brains (2 months old) were homogenized in ice-cold homogenization buffer (0.32 M sucrose, 10 mM HEPES pH 7.4, 2 mM EDTA, protease inhibitors, phosphatase inhibitors). Homogenates were centrifuged at 900×g for 10 minutes. The resulting supernatant was centrifuged again at 12,000×g for 15 minutes. The pellet was resuspended in homogenization buffer and centrifuged at 13,000×g for 15 minutes (the resulting pellet is P2; crude synaptosomes)."}, "[4]": {"test_system": "NMDAR", "experiment": "NMDA/AMPA ratio of eEPSCs (−70 mV/+40 mV), whole-cell patch-clamp, hippocampal slices", "format": "cell-based, mouse", "conditions": "4 uM bath-applied", "method": "(§5) For electrophysiological experiments, sagittal hippocampal slices (400 uM thick for extracellular, 300 uM thick for intracellular recordings) of Shank2^−/− mice (or ZnT3^−/− mice) and their wild-type littermates were prepared using a vibratome (Leica VT1200) in ice-cold dissection buffer containing (in mM) 212 sucrose, 25 NaHCO3, 5 KCl, 1.25 NaH2PO4, 0.5 CaCl2, 3.5 MgSO4, 10 D-glucose, 1.25 L-ascorbic acid, and 2 Na-pyruvate bubbled with 95% 02/5% CO2. CA3 was removed to prevent epileptiform activity. Slices were restored for 1 hour in 32° C. in a normal artificial CSF (ACSF) (In units of mM: 124 NaCl, 2.5 kCl, 1 NaH2PO4, 25 NaHCO3, 10 glucose, 2 CaC12, 2 Mg504 oxidized by 95% 02/5% CO2) For the recording, a single slice was moved to and maintained in submerged-type chamber at 28° C., continuously perfused with ACSF (2 mL/minute) saturated with 95% 02/5% CO2. Stimulation and recording pipettes were pulled from borosilicate glass capillaries (Harvard Apparatus) using a micropipette electrode puller (Narishege).\nWhole-cell patch-clamp recordings of hippocampal CA1 pyramidal neurons were also made using a MultiClamp 700B amplifier (Molecular Devices) and Digidata 1440A (Molecular Devices). During whole-cell patch-clamp recordings, series resistance was monitored each sweep by measuring the peak amplitude of the capacitance currents in response to short hyperpolarizing step pulse (5 mV, 40 ms); only cells with a change in <25% were included in the analysis. […] AMPAR-mediatedEPSCs were recorded at −70 mV, and 30 consecutive responses were recorded after stable baseline. […] NMDA component was measured at 60 ms after the stimulation. The NMDA/AMPA ratio was determined by dividing the mean value of 30 NMDA components of EPSPs by the mean value of 30 AMPAR-mediated EPSC peak amplitudes. […] AMPAR-mediated EPSC was determined as a peak amplitude of EPSC, and NMDAR-mediated EPSC as a component at 60 ms after stimulation. NMDA/AMPA ratio at −40 mV was calculated by using both values, and monitored during the experimental process. […]"}, "[5]": {"test_system": "AMPAR", "experiment": "AMPA-fEPSPs, input-output and paired pulse ratio, hippocampal slices", "format": "cell-based, mouse", "conditions": "4 uM, WT and Shank2^−/− SC-CA1 synapses", "method": "as §5, with “Shank2^-/-” for “Shank2^−/−”, “ZnT3^-/-” for “ZnT3^−/−”, “([…]). […] Field excitatory postsynaptic potentials (fEPSPs) were recorded in the stratum radiatum of the hippocampal CA1 region using pipettes filled with ACSF (1 MΩ). fEPSP was amplified (Multiclamp 700B, Molecular Devices), and digitized (Digidata 1440A, Molecular Devices) for measurements. […]” for “(Narishege).”"}, "[6]": {"test_system": "NMDAR", "experiment": "Simultaneous NMDA- and AMPA-eEPSCs at −40 mV, patch-clamp, hippocampal slices", "format": "cell-based, mouse", "conditions": "CQ 4 uM, WT and Shank2^−/− SC-CA1 synapses", "method": "For electrophysiological experiments, sagittal hippocampal slices (400 uM thick for extracellular, 300 uM thick for intracellular recordings) of Shank2^−/− mice (or ZnT3^−/− mice) and their wild-type littermates were prepared using a vibratome (Leica VT1200) in ice-cold dissection buffer containing (in mM) 212 sucrose, 25 NaHCO3, 5 KCl, 1.25 NaH2PO4, 0.5 CaCl2, 3.5 MgSO4, 10 D-glucose, 1.25 L-ascorbic acid, and 2 Na-pyruvate bubbled with 95% 02/5% CO2. CA3 was removed to prevent epileptiform activity. […]\nWhole-cell patch-clamp recordings of hippocampal CA1 pyramidal neurons were also made using a MultiClamp 700B amplifier (Molecular Devices) and Digidata 1440A (Molecular Devices). During whole-cell patch-clamp recordings, series resistance was monitored each sweep by measuring the peak amplitude of the capacitance currents in response to short hyperpolarizing step pulse (5 mV, 40 ms); only cells with a change in <25% were included in the analysis. […] AMPAR-mediatedEPSCs were recorded at −70 mV, and 30 consecutive responses were recorded after stable baseline. […] NMDA component was measured at 60 ms after the stimulation. The NMDA/AMPA ratio was determined by dividing the mean value of 30 NMDA components of EPSPs by the mean value of 30 AMPAR-mediated EPSC peak amplitudes. […] NMDA/AMPA ratio at −40 mV was calculated by using both values, and monitored during the experimental process. […]"}}, "note": "Entries after “also recorded” stand apart in the source; their conditions may differ."}
{"smiles": "Oc1c(I)cc(Cl)c2cccnc12", "note": "[clioquinol, 5-Chloro-7-Iodo-8-Hydroxyquinoline]", "values": [{"measurement": "Social interaction (exploration/sniffing time, social preference index)", "setting": "[1]; Shank2^−/− (KO) mice", "result": "improved"}, {"measurement": "Social interaction (exploration/sniffing time, social preference index)", "setting": "[1]; Shank2^−/− (KO) mice, listed as Clioquinol", "result": "improves social interaction"}, {"measurement": "Social interaction (exploration/sniffing time, social preference index)", "setting": "[1]; wild-type (WT) mice", "result": "not affected"}, {"measurement": "Social interaction (exploration/sniffing time, social preference index)", "setting": "[1]; wild-type (WT) mice, listed as Clioquinol", "result": "has no effect"}, {"measurement": "Social interaction (time exploring targets, social preference index)", "setting": "[2]; Tbr1^+/− (HT) mice", "result": "improved social interaction deficiencies"}, {"measurement": "Social interaction (time exploring targets, social preference index)", "setting": "[2]; Tbr1^+/− (HT) mice, listed as CQ", "result": "enhances social interaction; also recorded: improves social interaction"}, {"measurement": "Social interaction (time exploring targets, social preference index)", "setting": "[2]; wild-type mice", "result": "had no effect"}, {"measurement": "Social interaction (time exploring targets, social preference index)", "setting": "[2]; wild-type mice, listed as CQ", "result": "has no effect"}, {"measurement": "Total level of ZnT3 protein", "setting": "[3]", "result": "has no effect on the total level of ZnT3 protein"}, {"measurement": "NMDA/AMPA ratio (NMDAR function)", "setting": "[4]; Shank2^−/− SC-CA1 synapses", "result": "restored the NMDAR function to a normal level"}, {"measurement": "NMDA/AMPA ratio (NMDAR function)", "setting": "[4]; Shank2^−/− SC-CA1 synapses, listed as Clioquinol", "result": "normalizes the NMDA/AMPA ratio"}, {"measurement": "NMDA/AMPA ratio (NMDAR function)", "setting": "[4]; wild-type synapses", "result": "had no influence"}, {"measurement": "Paired pulse ratio", "setting": "[5]", "result": "had no effect"}, {"measurement": "Paired pulse ratio", "setting": "[5]; listed as CQ", "result": "has no effect on the paired pulse ratio"}, {"measurement": "NMDA/AMPA ratio of eEPSCs at −40 mV", "setting": "[6]", "result": "increased"}, {"measurement": "NMDA/AMPA ratio of eEPSCs at −40 mV", "setting": "[6]; listed as CQ", "result": "increases the NMDA/AMPA ratio"}]}
